Sequences of proteins named here, by UniProt entry; tags and fusion partners are left off.
UniProt P34972, whole entry: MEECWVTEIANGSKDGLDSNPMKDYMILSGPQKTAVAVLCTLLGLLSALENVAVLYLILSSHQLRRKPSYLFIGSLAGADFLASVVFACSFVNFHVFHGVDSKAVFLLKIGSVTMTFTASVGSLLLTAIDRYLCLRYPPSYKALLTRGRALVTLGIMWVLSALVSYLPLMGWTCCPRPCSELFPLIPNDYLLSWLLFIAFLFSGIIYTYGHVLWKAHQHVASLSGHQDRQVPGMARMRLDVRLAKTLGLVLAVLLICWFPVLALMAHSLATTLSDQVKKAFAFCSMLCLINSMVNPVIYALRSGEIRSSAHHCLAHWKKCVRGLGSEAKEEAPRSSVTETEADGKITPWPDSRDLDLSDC
UniProt P21554, whole entry: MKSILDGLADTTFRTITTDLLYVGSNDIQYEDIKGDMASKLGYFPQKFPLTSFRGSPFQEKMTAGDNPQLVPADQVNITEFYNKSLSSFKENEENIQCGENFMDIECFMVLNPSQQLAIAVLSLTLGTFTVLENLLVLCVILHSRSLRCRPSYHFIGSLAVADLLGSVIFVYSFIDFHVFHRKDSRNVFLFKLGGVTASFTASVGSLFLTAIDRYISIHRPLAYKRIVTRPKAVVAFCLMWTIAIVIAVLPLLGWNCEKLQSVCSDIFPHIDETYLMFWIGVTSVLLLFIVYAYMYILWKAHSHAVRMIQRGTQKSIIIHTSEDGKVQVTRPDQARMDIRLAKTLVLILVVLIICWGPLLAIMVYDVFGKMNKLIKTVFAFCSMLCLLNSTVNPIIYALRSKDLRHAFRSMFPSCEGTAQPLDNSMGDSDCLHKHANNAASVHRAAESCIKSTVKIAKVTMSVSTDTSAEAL

According to patent US8048899B2, “Compounds which selectively modulate the CB2 receptor” (Boehringer Ingelheim International GmbH, priority 2008, dated 2011):

Key:
human CB2R = human CB2R (Homo sapiens, UniProt P34972); test: CB2R mediated modulation of cAMP synthesis; type: cell-based; details: read-out: CB2 EC50; CHO cells expressing human CB2R; inhibition of forskolin-stimulated cAMP synthesis
Procedure: B. CB2R Mediated Modulation of cAMP Synthesis:
Compounds of the invention are evaluated for their CB2 agonist or inverse agonistic activity in accordance with the following experimental method.
(§1) CHO cells expressing human CB2R (Euroscreen) are plated at a density of 5000 cells per well in 384 well plates and incubated overnight at 37° C. After removing the media, the cells are treated with test compounds diluted in stimulation buffer containing 1 mM IBMX, 0.25% BSA and 10 uM Forskolin. The assay is incubated for 30 minutes at 37° C. Cells are lysed and the cAMP concentration is measured using DiscoverX-XS cAMP kit, following the manufacturer's protocol. In this setting, agonists will decrease forskolin induced production of cAMP while inverse agonists will further increase forskolin induced production of cAMP. EC50 of agonists are calculated as follows. The maximal amount of cAMP produced by forskolin compared to the level of cAMP inhibited by 1 uM CP55940 is defined as 100%. The EC50 value of each test compound is determined as the concentration at which 50% of the forskolin-stimulated cAMP synthesis is inhibited. Data is analyzed using a four-parameter logistic model. (Model 205 of XLfit 4.0).

human CB1R = human CB1R (Homo sapiens, UniProt P21554); test: CB1R mediated modulation of cAMP synthesis; type: cell-based; details: read-out: CB1 EC50; CHO cells expressing human CB1R; inhibition of forskolin-stimulated cAMP synthesis
Procedure: C. CB1R Mediated Modulation of cAMP Synthesis:
Compounds of the invention are evaluated for their CB1 agonist or inverse agonistic activity in accordance with the following experimental method.
as §1, with “CB1R” for “CB2R”

CC(C)(CO)c1nnc(NC(=O)C(C)(C)S(=O)(=O)CCCC(F)(F)F)s1
EC50 (human CB2R): 93 nM | EC50 (human CB1R): > 50000 nM
